Experimental data: BindingDB's records for doi:10.1021/jm00062a001 (Upjohn Laboratories, 1993)

Test: Binding affinity against 5-hydroxytryptamine 1A receptor from bovine hippocampus, used [3H]8-OH-DPAT as radioligand

With CCCN1CC[C@H]2c3c(O)cccc3CC[C@H]21 [(Recemic)3-Propyl-2,3,3a,4,5,9b-hexahydro-1H-benzo[e]indol-9-ol] as the compound, how does the Ki read?
The Ki was 1.4 nM.
